Apparent affinities of Ab-14 variants for a coronavirus HR2 peptide

Source: Engelhart et al. 2022 (doi:10.1038/s41597-022-01779-4), MIT Lincoln Laboratory and A-Alpha Bio; data file from the FLAb repository.

Target peptide (SARS-CoV-2 spike, HR2 region): PDVDLGDISGINAS

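Phage display of a naive human antibody library on the peptide gave the parent. Library AAYL50 holds single substitutions and randomly drawn double and triple substitutions in the CDRs. The scFvs were displayed on barcoded MATa yeast, the peptide on MATalpha yeast. The frequency of each diploid, read from paired DNA barcodes, reflects how well the two displayed proteins bind. Scores were corrected for input abundance and mapped to Kd with protein pairs of known affinity run in the same pool. Mating was done three times.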

Ab-14 is the parent antibody, in scFv form: VH, then the linker GGGGSGGGGSGGGGS, then VL. The heavy chain is unchanged in all variants.
VH: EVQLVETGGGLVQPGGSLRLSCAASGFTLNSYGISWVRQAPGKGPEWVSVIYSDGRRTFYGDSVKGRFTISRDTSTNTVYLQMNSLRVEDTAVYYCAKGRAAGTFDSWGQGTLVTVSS
VL: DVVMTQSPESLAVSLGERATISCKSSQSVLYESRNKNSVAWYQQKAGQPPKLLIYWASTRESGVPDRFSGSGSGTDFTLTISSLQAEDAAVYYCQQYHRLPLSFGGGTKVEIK

Each variant is given by its three light chain CDRs, as the data file delimits them; those of the parent are KSSQSVLYESRNKNSVA, WASTRES, QQYHRLPLS.
Numbers give log10(Kd / nM), so 0 is 1 nM and 3 is 1 µM. Smaller is tighter.
Averages over replicates are reported, and they cover detected replicates only.
"nd" means that the variant was in the library but no mating with the target was seen in any replicate; the authors take this as a sign of poor binding, and no number exists.
Entries are sorted by rising average, undetected variants last.
Empty control strains, which show no peptide, gave a signal in 18% of pairings with library AAYL50; the median was 4.19 and 95% of these signals were weaker than 2.99. No background was subtracted.

| CDR-L1 | CDR-L2 | CDR-L3 | mean log10 Kd (nM) | seen in |
|---|---|---|---|---|
| KSSQSVLYESRNKNSVA | HASTRES | QQYHRLPLT | 0.27 | 3 of 3 |
| KSSQSVLMESRNCNSVA | KASTRES | QQYHRLPLS | 0.34 | 3 of 3 |
| KSSQSVLYESRNKNSVA | QASNRER | QQYHRLPLS | 0.34 | 3 of 3 |
| KSSQSVLYERNNENSVA | WASTRES | QQYHRLPLS | 0.52 | 3 of 3 |
| KSSQYVLYESRNKNSVA | YASTRES | QQYQRLPLS | 0.54 | 3 of 3 |
| KSMQSVLYESNNKNSVA | YASTRES | QQYHRLPLS | 0.61 | 3 of 3 |
| KSSQSVLYESRNSNSVA | WASTRER | QQYHRLPLR | 0.67 | 3 of 3 |
| KSSQSVLAESRNKNSVA | WASTRES | QQYTRLPLS | 0.73 | 3 of 3 |
| KSSRSVKYESQNKNSVA | WASTRES | QQYHRLPLS | 0.78 | 3 of 3 |
| KSKQSLLYESRNKNSVA | WASTRES | QQYHRNPLS | 0.92 | 3 of 3 |
| KSSQSVLYESPNKNGVA | KASTRES | QQYHRLPLS | 0.92 | 3 of 3 |
| KYSQSVLYHSRNKNSVA | WATTRES | QQYHRLPLS | 1.03 | 3 of 3 |
| KSSQSVLYESRLKNSVA | WASTRES | THYHRLPLS | 1.04 | 3 of 3 |
| KSSQSVLYESRNKNSVA | WAKYRES | QQYMRLPLS | 1.07 | 3 of 3 |
| KSSQSVLYESGNKNMVA | WASTRES | QQYHRLPLS | 1.16 | 3 of 3 |
| KSSQSVLYESRNKNSLA | WASTRES | QQYARLPLQ | 1.40 | 3 of 3 |
| KSSQSVLYESMNKNSVA | WASTRDS | QQYHRLPQS | 1.46 | 3 of 3 |
| KSSQSVLYESRNMNSVA | CASTRES | QNYHRLPLS | 1.47 | 1 of 3 |
| KSSQSVLYESRNCNSVA | WASTRES | QQYIRLPLM | 1.48 | 3 of 3 |
| ISSQSVLWESRNKNSVA | WASTRES | QQYHRLPLS | 1.53 | 3 of 3 |
| KSSQSLLYESRNKNSVA | WASTREG | QQYHRLPSS | 1.58 | 3 of 3 |
| KSSGSVLYESRNKNSVA | WASTREM | QQYHNLPLS | 1.59 | 3 of 3 |
| KSSQSVLYLSRHDNSVA | WASTRES | QQYHRLPLS | 1.59 | 3 of 3 |
| KSSDSFLYESRVKNSVA | WASTRES | QQYHRLPLS | 1.60 | 3 of 3 |
| KKSQSVLYESRNKNSVA | WASSRAS | QQYHRLPLS | 1.62 | 3 of 3 |
| KRSQFCLYESRNKNSVA | WASTRES | QQYHRLPLS | 1.69 | 3 of 3 |
| KSSQSVLYESWNKNSVA | WASVRES | QLYHRLPLS | 1.73 | 3 of 3 |
| KFSQSVLMESRNKNSVA | WASTSES | QQYHRLPLS | 1.78 | 3 of 3 |
| KSSQSVLYESRNKNSVA | WASTRES | QQYHCMPLS | 1.89 | 3 of 3 |
| HSSQGVLYESRNKNSVA | WASTRPS | QQYHRLPLS | 1.90 | 3 of 3 |
| KSSFSVLFESRNKNDVA | WASTRES | QQYHRLPLS | 1.96 | 3 of 3 |
| KSSQIVLYESDNKNSVA | WVSTRES | QQYHRLPLS | 2.05 | 3 of 3 |
| KSSQSVLYESRNGNVVA | HASTRES | QQYHRLPLS | 2.13 | 3 of 3 |
| KSFQSLLYESRNKNSVA | WASTRES | QQYQRLPLS | 2.15 | 3 of 3 |
| KPSQSVEYESRNKNSVA | LASTRES | QQYHRLPLS | 2.21 | 3 of 3 |
| KSVQSELYESRNKNSVA | WASTRES | EQYHRLPLS | 2.38 | 3 of 3 |
| KSSQSVLYESRNFNSVA | WASTKES | QQYHRLPLS | 2.76 | 3 of 3 |

The remaining entries, values ahead:

| mean log10 Kd (nM) | seen in | CDR-L1 | CDR-L2 | CDR-L3 |
|---|---|---|---|---|
| 2.93 | 1 of 3 | KSSQSYLYESRNKNSCA | WASTRES | QQYHRLPES |
| 2.95 | 3 of 3 | KSSQSVHYESRNKSSVA | WASTRES | EQYHRLPLS |
| 3.15 | 3 of 3 | ASSQSVLYESRNKNEVA | WASTRCS | QQYHRLPLS |
| 3.24 | 1 of 3 | KSSQPVLYESRNKNSVH | WASTRES | QQYHELPLS |
| 3.64 | 3 of 3 | KSSQSVLYESRNKNSVA | WASTRTS | QQYHRLPAS |
| 3.87 | 1 of 3 | YSSQSVLYESRNKNSVA | WASTMES | SQYHRLPLS |
| 4.20 | 3 of 3 | KASQSVFYESRNKNSDA | WASTRES | QQYHRLPLS |
| 4.20 | 2 of 3 | KSSQSVLYESRNKNMGA | WASTREV | QQYHRLPLS |
| 4.35 | 3 of 3 | KSSQSVLYFRRNKNSVA | WASTRES | QQYHRLPLS |
| 4.51 | 2 of 3 | PESQSVLYESRNKNSVA | WASTRES | QQYHRLPCS |
| 4.66 | 2 of 3 | KSSQSVAYESRDKNSDA | WASTRES | QQYHRLPLS |
| 4.67 | 2 of 3 | KSSQRVLYHSRNKNSVA | WHSTRES | QQYHRLPLS |
| 4.89 | 1 of 3 | KSSQSVLYESRNQNSQA | QASTRES | QQYHRLPLS |
| 5.01 | 2 of 3 | KSSQSVQYESRNKNSVA | WASTRPS | QQYHRLPQS |
| 5.03 | 3 of 3 | KSSQSVLYESRMKPSVA | WASTRES | QRYHRLPLS |
| 5.51 | 1 of 3 | KSSQSVLCESRNKNSVA | WQSTRES | QQYHRLPLE |
| 6.20 | 1 of 3 | KSSQLVLYESRNKNSVA | WAETRES | QNYHRLPLS |
| nd | 0 of 3 | KSSQAVLYESRNKNSVY | WASTRES | QTYHRLPLS |
| nd | 0 of 3 | KSSQSDLYESRNKNSHA | WASTRES | QQYMRLPLS |
| nd | 0 of 3 | KSSQSVLYESRNKNSVA | WFNTRES | QQYHCLPLS |
| nd | 0 of 3 | GSSQSVLYESRNKNSTA | WASTRES | QQPHRLPLS |
| nd | 0 of 3 | KSSQSVIYESRNKNSVA | WACTRES | QQYHRLPLS |
| nd | 0 of 3 | KSSQSILYESRNKNKVA | WASTRES | QQYWRLPLS |
| nd | 0 of 3 | KSSQSVLYESRNKNSVA | WASTRES | QQYHRHKLS |
| nd | 0 of 3 | KSSQSVHYESRNKNSVA | WRSTRHS | QQYHRLPLS |
| nd | 0 of 3 | KSAQSVLYESRNKNSVA | WASTRES | CQYHRLPLS |
| nd | 0 of 3 | KSSQSVLYESRTKNSVA | WASTRES | QQTHRLPLS |
| nd | 0 of 3 | KSPQSVLYESRNKNSCA | WASTRES | QGYHRLPLS |
| nd | 0 of 3 | KSSQSVLMESRNKNSVA | WASTRES | QRYHQLPLS |
| nd | 0 of 3 | KSSQSVLYYSINKNSVA | WASTRES | QQMHRLPLS |
| nd | 0 of 3 | KSSWSVLYESRNYNSVH | WASTRES | QQYHRLPLS |
| nd | 0 of 3 | KSSQSVLYESRNKGQVA | WPSTRES | QQYHRLPLS |
| nd | 0 of 3 | KSSQSHLYESRNKNSVA | WASTRES | RQYHRLPLS |
| nd | 0 of 3 | KSSTEVLYESRNKNSVA | WASTRES | QQYHRLDLS |
| nd | 0 of 3 | KSSQSVLYEPRNKNSVA | WASTRES | QQYHRLPLA |
| nd | 0 of 3 | KSSQSVLYESRNKNSVA | WASTRES | QQYHTDQLS |
| nd | 0 of 3 | KSSQSVLYESRVKNSVA | WASTRES | QQYHRMQLS |
| nd | 0 of 3 | KSSQSVLKKSRNYNSVA | WASTRES | QQYHRLPLS |

Top 12 of the variants detected in all replicates, tightest first:

| CDR-L1 | CDR-L2 | CDR-L3 | mean log10 Kd (nM) | seen in |
|---|---|---|---|---|
| KSSQSVLYESRNKNSVA | HASTRES | QQYHRLPLT | 0.27 | 3 of 3 |
| KSSQSVLMESRNCNSVA | KASTRES | QQYHRLPLS | 0.34 | 3 of 3 |
| KSSQSVLYESRNKNSVA | QASNRER | QQYHRLPLS | 0.34 | 3 of 3 |
| KSSQSVLYERNNENSVA | WASTRES | QQYHRLPLS | 0.52 | 3 of 3 |
| KSSQYVLYESRNKNSVA | YASTRES | QQYQRLPLS | 0.54 | 3 of 3 |
| KSMQSVLYESNNKNSVA | YASTRES | QQYHRLPLS | 0.61 | 3 of 3 |
| KSSQSVLYESRNSNSVA | WASTRER | QQYHRLPLR | 0.67 | 3 of 3 |
| KSSQSVLAESRNKNSVA | WASTRES | QQYTRLPLS | 0.73 | 3 of 3 |
| KSSRSVKYESQNKNSVA | WASTRES | QQYHRLPLS | 0.78 | 3 of 3 |
| KSKQSLLYESRNKNSVA | WASTRES | QQYHRNPLS | 0.92 | 3 of 3 |
| KSSQSVLYESPNKNGVA | KASTRES | QQYHRLPLS | 0.92 | 3 of 3 |
| KYSQSVLYHSRNKNSVA | WATTRES | QQYHRLPLS | 1.03 | 3 of 3 |